# The other results are listed elsewhere or left out. Cut-off read from the data, not from the text of the source: active = GI50 up to about 1.1 µM and inactive = higher. Only a part of the results of these assays is listed, not drawn at random.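 Cultured in 96-well plates, cells were exposed to test compound for 48 hours across five concentrations. Abbreviation: GI50, concentration required for 50% inhibition of growth.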 For part of these data: Measured potencies and affinities stand elsewhere.
# Tested on: MCF7
# Test: NCI tumour cell line growth inhibition, 48 h
row,SMILES,GI50
1,COc1ccc2nccc(C=O)c2c1,active: 0.258 µM
2,O=[As](O)(O)O,inactive: > 100 µM
3,ClCCSc1c2ccccc2nc2ccccc12,inactive: 3.37 µM
4,O=[N+]([O-])c1ncn(F)c1[N+](=O)[O-],inactive: > 100 µM
5,O=[N+]([O-])C1([N+](=O)[O-])CCCc2nonc21,inactive: 34 µM
6,C[S+](N)(=O)CCC(N)P(=O)(O)O (stereo unspecified),inactive: > 100 µM
7,COP(C)(=O)C(N)Cc1ccccc1 (stereo unspecified),inactive: > 100 µM
8,Cc1ccc2ccc3ccc4ccccc4c3c2c1.O=C1c2cc([N+](=O)[O-])ccc2-c2c1cc([N+](=O)[O-])cc2[N+](=O)[O-],inactive: 1.15 µM
9,O=C1CCN2CCCC12 (stereo unspecified),inactive: > 100 µM
10,O=[N+]([O-])C1([N+](=O)[O-])COCOC1,inactive: 78.2 µM
11,CCCCCCCCCCCCCNCC(C)O (stereo unspecified),inactive: 11.6 µM
12,NNc1nc2nonc2nc1NN,inactive: 14.4 µM
13,CCCC[S+](N)(=O)CCC(N)P(=O)(O)O (stereo unspecified),inactive: > 100 µM
14,COc1ccc([N+](=O)[O-])c(C[N+](C)(CCCl)CCCl)c1,inactive: > 100 µM
15,COc1ccc(C[N+](C)(CCCl)CCCl)c([N+](=O)[O-])c1,inactive: > 100 µM
16,Cc1ccc2ccc(C)c(C)c2c1.O=[N+]([O-])c1cc([N+](=O)[O-])c(O)c([N+](=O)[O-])c1O,inactive: > 100 µM
17,O[C@@H]1CCN2CCC[C@H]12,inactive: > 100 µM
18,Cc1ccc([N+](=O)[O-])c(C[N+](C)(CCCl)CCCl)c1,inactive: 5.16 µM

# Tested on: MDA-MB-231
# Test: NCI tumour cell line growth inhibition, 48 h
row,SMILES,GI50
1,COc1ccc2nccc(C=O)c2c1,inactive: 9.23 µM
2,O=[As](O)(O)O,inactive: > 100 µM
3,ClCCSc1c2ccccc2nc2ccccc12,inactive: 5.6 µM
4,CC1=C[C@H]2O[C@@H]3C[C@H]4OC(=O)/C=C\C=C/[C@H]([C@@H](C)O)OC[C@H](O)[C@@]5(C)O[C@@H]5C(=O)OC[C@@]2(C[C@H]1O)[C@]4(C)C31CO1 (stereo partly specified),active: 0.233 µM
5,O=[N+]([O-])c1ncn(F)c1[N+](=O)[O-],inactive: > 100 µM
6,O=[N+]([O-])C1([N+](=O)[O-])CCCc2nonc21,inactive: 37.2 µM
7,C[S+](N)(=O)CCC(N)P(=O)(O)O (stereo unspecified),inactive: > 100 µM
8,Cc1ccc2ccc3ccc4ccccc4c3c2c1.O=C1c2cc([N+](=O)[O-])ccc2-c2c1cc([N+](=O)[O-])cc2[N+](=O)[O-],inactive: 4.55 µM
9,O=C1CCN2CCCC12 (stereo unspecified),inactive: > 100 µM
10,O=[N+]([O-])C1([N+](=O)[O-])COCOC1,inactive: > 100 µM
11,CCCCCCCCCCCCCNCC(C)O (stereo unspecified),inactive: 12.1 µM
12,NNc1nc2nonc2nc1NN,inactive: 40.8 µM
13,CCCC[S+](N)(=O)CCC(N)P(=O)(O)O (stereo unspecified),inactive: > 100 µM
14,COc1ccc([N+](=O)[O-])c(C[N+](C)(CCCl)CCCl)c1,inactive: > 100 µM
15,COc1ccc(C[N+](C)(CCCl)CCCl)c([N+](=O)[O-])c1,inactive: > 100 µM
16,Cc1ccc2ccc(C)c(C)c2c1.O=[N+]([O-])c1cc([N+](=O)[O-])c(O)c([N+](=O)[O-])c1O,inactive: > 100 µM
17,O[C@@H]1CCN2CCC[C@H]12,inactive: > 100 µM
18,Cc1ccc([N+](=O)[O-])c(C[N+](C)(CCCl)CCCl)c1,inactive: 30.3 µM

# From ChEMBL document CHEMBL1201862, “PubChem BioAssay data set” (2004)
